Source: patent US8304182B2, “Methods of identifying anti-cancer agents and uses thereof” (The Trustees of the University of Pennsylvania, priority 2003, dated 2012)

Key:
[1] = tested on: isolated DNA; experiment: Assaying isolated DNA for strand breaks; settings: cells growing in the presence or absence of IL-3
[2] = tested on: bax^−/−bak^−/− MEFs; experiment: Cell death assay by PI exclusion, bax^−/−bak^−/− MEFs; format: cell-based, mouse
[3] = tested on: IL-3-dependent hematopoietic bax^−/−bak^−/− cells; experiment: Cell death assay by PI exclusion, IL-3-dependent bax^−/−bak^−/− cells; format: cell-based, mouse
[4] = tested on: p53^−/− MEFs; experiment: Cell death assay by PI exclusion, p53^−/− MEFs; format: cell-based, mouse; settings: 20 h following treatment, FIG. 1
[5] = tested on: cytochrome c; experiment: Cytochrome c immunofluorescence; settings: 6 h, FIG. 4B
[6] = tested on: bax^−/−bak^−/− cells; experiment: Transmission electron microscopy of cell death morphology, bax^−/−bak^−/− cells; settings: 0.5 mM MNNG or 2 μM staurosporine, 9 h
[7] = tested on: PARP; experiment: PARP activation by immunoblotting of poly(ADP-ribose) (PAR); settings: for PARP activation (increase of poly(ADP-ribose) polymers): MNNG 0.5 mM, FIG. 2A; for poly(ADP-ribosyl)ation upon treatment: versus vector, FIG. 3B
[8] = tested on: wild-type cells; experiment: Transmission electron microscopy of cell death morphology, wild-type cells; settings: 0.5 mM MNNG or 2 μM staurosporine, 9 h
[9] = tested on: Clone HP17 (bax^−/−bak^−/−, shPARP-1) MEFs; experiment: Cell death assay by PI exclusion, Clone HP17 MEFs
[10] = tested on: Mouse bone marrow derived macrophages; experiment: TNFα production by macrophages given culture medium of treated MEFs; format: cell-based; settings: TNFα 24 h later
[11] = tested on: HMGB1; experiment: HMGB1 localization and release (immunofluorescence, immunoblotting); settings: 0.5 mM MNNG
[12] = tested on: ATP; experiment: Determination of cellular ATP; format: cell-based, mouse; settings: for cellular ATP level: 30 min treatment, FIG. 2C
[13] = tested on: PARP-1 and lamin B1; experiment: Immunoblotting of caspase cleavage of PARP-1 and lamin B1; format: cell-based, mouse; settings: bax^−/−bak^−/− cells, lysed after 8 h, FIG. 4C
[14] = tested on: parp-1^−/− MEFs; experiment: Cell death assay by PI exclusion, parp-1^−/− MEFs; settings: parp-1^−/− cells
[15] = tested on: wild-type MEFs; experiment: Cell death assay by PI exclusion, wild-type MEFs
[16] = Determination of cellular NAD; format: cell-based, mouse
[17] = IL-3-dependent cells, 0.5 mM MNNG 15 min, subcellular fractionation, FIG. 6E

With CN(N=O)C(=N)N[N+](=O)[O-] the “DNA damage (strand breaks)” value [1] was “equivalent amounts of DNA damage”, the “sensitivity to MNNG-induced cell death, confluent serum-deprived versus subconfluent with serum” value ([2]; bax^−/−bak^−/− MEFs, 0.5 mM MNNG 15 min, 24 h, FIG. 6B) was “less sensitive” and the “cell death (cell survival by PI exclusion)” value ([2]; bax^−/−bak^−/− MEFs, 20 h following treatment, FIG. 1) was “as sensitive as wild-type cells”. For the same molecule, the cell death ([2]; bax^−/−bak^−/− cells, within 20 hours following 0.5 mM MNNG, FIG. 3E/F) was “All wild-type and bax^−/−bak^−/− cells died”, the “cell death (PI exclusion)” value ([2]; vector control bax^−/−bak^−/− cells, 20 h after treatment, FIG. 3D) was “killed all” and the viability over time ([3]; 0.5 mM MNNG in the presence of IL-3) was “continued to decline over the first 72 hours”. For the same molecule, the “cell death (PI exclusion)” value ([3]; IL-3-deprived cells (2 d), 24 h after 15 min treatment, FIG. 6A) was “resistant”, the cell viability ([3]; IL-3-deprived cells, 0.5 mM MNNG, IL-3 added 24 hour after treatment, viability 48 hours later) was “greater than 85%” and the “cell death (PI exclusion)” value ([3]; IL-3 stimulated cells adapted to low glucose (withdrawn from glucose over 48 hours), FIG. 7C) was “resistance to MNNG-induced death that was comparable to that of IL-3-deprived cells”. For the same molecule, the “cell death (PI exclusion)” value ([3]; cells proliferating in response to IL-3, 24 h after 15 min treatment, FIG. 6A) was “killed by MNNG in a dose-dependent manner”, the “cell death (cell survival by PI exclusion)” value [4] was “as sensitive as wild-type cells” and the cytochrome c distribution ([5]; bax^−/−bak^−/− cells) was “no change of cytochrome c distribution pattern was observed”. For the same molecule, the cytochrome c release ([5]; wild-type cells (BMK)) was “Cytochrome c release was observed in some cells”, the “morphologic features of cell death by electron microscopy” value [6] was “morphologic changes characteristic of necrosis” and the “PARP activation (poly(ADP-ribosyl)ation), vegetative versus proliferating cells” value ([7]; IL-3-dependent bax^−/−bak^−/− cells with or without IL-3, MNNG 15 min, FIG. 6C) was “Equivalent increases in poly(ADP-ribosyl)ation”. The “PARP activation (increase of poly(ADP-ribose) polymers)” value ([7]; bax^−/−bak^−/− MEFs) was “activated equally”, the “poly(ADP-ribosyl)ation upon treatment” value ([7]; clone HP11 (bax^−/−bak^−/− MEF, PARP-1 shRNA, moderate knock-down)) was “moderately decreased” and the “poly(ADP-ribosyl)ation upon treatment” value ([7]; clone HP17 (bax^−/−bak^−/− MEF, PARP-1 shRNA)) was “significantly decreased”. For the same molecule, the “PARP activation (increase of poly(ADP-ribose) polymers)” value ([7]; wild-type MEFs) was “activated equally”, the “morphologic features of cell death by electron microscopy” value [8] was “morphologic changes characteristic of necrosis” and the cells remained viable ([9]; HP17 cells, 0.25 mM MNNG, three days after the treatment, FIG. 3G) was 90%. The cell death ([9]; HP17 cells, within 20 hours following 0.5 mM MNNG, FIG. 3E/F) was “essentially no cell death”, the “cell death (PI exclusion)” value ([9]; clone HP17, 20 h after treatment, FIG. 3D) was “no cell death was observed” and the “TNFα production by macrophages” value ([10]; culture medium from treated bax^−/−bak^−/− MEFs, MNNG 0.5 mM 15 min) was “induced TNFα production”. The “TNFα production by macrophages” value ([10]; culture medium from treated wild-type MEFs, MNNG 0.5 mM 15 min or STS 2 μM 2 h) was “induced TNFα production”, the HMGB1 localization ([11]; bax^−/−bak^−/− MEFs, 6 hours following treatment) was “translocation of HMGB1 from nucleus to the cytosol” and the “HMGB1 release into extracellular environment” value ([11]; wild-type and bax^−/−bak^−/− MEFs, 16 hours after treatment) was “HMGB1 could be found in the extracellular environment”. For the same molecule, the ATP levels ([12]; Clone HP17, 30 min treatment, FIG. 3C) was “maintained”, the “total cellular ATP level” value ([12]; IL-3-dependent bax^−/−bak^−/− cells cultured in the presence of IL-3, FIG. 6D) was “drastically decreased” and the “total cellular ATP level” value ([12]; IL-3-dependent bax^−/−bak^−/− cells deprived of IL-3, p<0.01, FIG. 6D) was “preserved”. The “cellular ATP level” value ([12]; bax^−/−bak^−/− cells) was “dose-dependent decrease”, the “cellular ATP level” value ([12]; wild-type cells) was “dose-dependent decrease” and the “biochemical apoptotic hallmarks incl. caspase cleavage of PARP-1 and lamin B1” value [13] was “none of the biochemical apoptotic hallmarks tested”. The cells alive ([14]; 0.25 mM MNNG, three days after the treatment, FIG. 3G) was “over 30%”, the cells died ([14]; within 20 hours following 0.5 mM MNNG, FIG. 3E/F) was 30% and the “sensitivity to MNNG-induced cell death, confluent serum-deprived versus subconfluent with serum” value ([15]; wild-type MEFs, 0.5 mM MNNG 15 min, 24 h, FIG. 6B) was “less sensitive”. For the same molecule, the cell death ([15]; wild-type cells, within 20 hours following 0.5 mM MNNG, FIG. 3E/F) was “All wild-type and bax^−/−bak^−/− cells died”, the “cellular NAD level” value ([16]; IL-3-dependent bax^−/−bak^−/− cells, with and without IL-3, FIG. 6D) was “decreased to a similar extent” and the “cytosolic NAD” value [16, 17] was “reduced cytosolic NAD to minimal levels”. The “mitochondrial NAD” value [16, 17] was “not significantly affected”, the “cellular NAD level” value ([16]; bax^−/−bak^−/− cells, 30 min treatment, FIG. 2B) was “dose-dependent decrease” and the “cellular NAD level” value ([16]; wild-type cells, 30 min treatment, FIG. 2B) was “dose-dependent decrease”.
